Data as given in ChEMBL document CHEMBL3871289, “Design, synthesis and antithrombotic evaluation of novel non-peptide thrombin inhibitors” (Bioorg Med Chem, 2017).

Biological target: Prothrombin (Homo sapiens, UniProt P00734)
Assay: Inhibition of human thrombin assessed as reduction in release of free nitroaniline using tosyl-glycyl-prolyl-arginine-4-nitranilide acetate as substrate preincubated for 10 mins followed by substrate addition by spectrophotometer

Question: `CC1CNc2c(cccc2S(=O)(=O)N[C@@H](CCCNC(=N)N)C(=O)N2CC[C@@H](C)C[C@@H]2C(=O)O)C1` (stereo partly specified) [ARGATROBAN] was tested. Which IC50 did it give?
Answer: Its IC50 is 11.7 to 15.5 nM.
